Results from paper PMC11558128 (Advanced Science, 2024).

Biological target: T1, rKv4.2 (Rattus norvegicus, UniProt Q63881)
T1 construct: expressed in transfected cells; host or cells: HEK293T
T1 sequence (Q63881 1-630): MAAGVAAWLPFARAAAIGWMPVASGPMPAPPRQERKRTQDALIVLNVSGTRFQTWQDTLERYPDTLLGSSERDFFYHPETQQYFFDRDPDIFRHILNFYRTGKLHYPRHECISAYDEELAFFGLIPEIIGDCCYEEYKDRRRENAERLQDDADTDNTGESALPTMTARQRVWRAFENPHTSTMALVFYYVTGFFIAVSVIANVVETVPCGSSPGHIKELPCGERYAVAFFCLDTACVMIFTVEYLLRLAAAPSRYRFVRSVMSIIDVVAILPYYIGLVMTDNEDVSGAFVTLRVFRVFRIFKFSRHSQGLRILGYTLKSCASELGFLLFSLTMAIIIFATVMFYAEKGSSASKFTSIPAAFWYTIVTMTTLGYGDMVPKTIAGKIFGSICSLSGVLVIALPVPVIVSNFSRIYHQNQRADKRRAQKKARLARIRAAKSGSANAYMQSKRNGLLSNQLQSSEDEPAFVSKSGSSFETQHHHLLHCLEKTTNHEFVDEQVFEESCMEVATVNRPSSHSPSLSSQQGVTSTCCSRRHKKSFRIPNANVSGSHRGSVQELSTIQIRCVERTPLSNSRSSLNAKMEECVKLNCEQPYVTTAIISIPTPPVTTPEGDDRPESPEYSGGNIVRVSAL
Assay: cell-based
Conditions: SEM

## CC(C)C[C@H](NC(=O)[C@H](Cc1ccc(O)cc1)NC(=O)[C@@H](NC(=O)[C@H](CCCCN)NC(=O)[C@@H]1CSSC[C@@H]2NC(=O)[C@H](CCC(=O)O)NC(=O)[C@H](CC(N)=O)NC(=O)[C@H](CCCCN)NC(=O)CNC(=O)[C@@H]3CCCN3C(=O)[C@H]([C@@H](C)O)NC(=O)[C@@H]3CSSC[C@H](NC(=O)[C@H](C)NC(=O)[C@H](Cc4ccc(O)cc4)NC(=O)[C@H](CC(N)=O)NC(=O)[C@@H]4CCCN4C(=O)[C@H](CSSC[C@H](NC(=O)CN)C(=O)N[C@@H](CCCCN)C(=O)NCC(=O)N[C@@H](Cc4ccccc4)C(=O)NCC(=O)N[C@@H](CC(=O)O)C(=O)N[C@@H](CO)C(=O)N3)NC2=O)C(=O)N[C@@H](CO)C(=O)N[C@@H](CO)C(=O)N[C@@H](CCCCN)C(=O)N[C@@H](CC(C)C)C(=O)N[C@@H](CCCCN)C(=O)N[C@@H](Cc2c[nH]c3ccccc23)C(=O)N1)C(C)C)C(N)=O [H26L]
  IC50: 3000 ± 632 nM

## CC(C)C[C@H](NC(=O)[C@H](Cc1ccc(O)cc1)NC(=O)[C@@H](NC(=O)[C@H](CCCCN)NC(=O)[C@@H]1CSSC[C@@H]2NC(=O)[C@H](CCC(=O)O)NC(=O)[C@H](CC(N)=O)NC(=O)[C@H](CCCCN)NC(=O)CNC(=O)[C@@H]3CCCN3C(=O)[C@H]([C@@H](C)O)NC(=O)[C@@H]3CSSC[C@H](NC(=O)[C@H](C)NC(=O)[C@H](Cc4ccc(O)cc4)NC(=O)[C@H](CC(N)=O)NC(=O)[C@@H]4CCCN4C(=O)[C@H](CSSC[C@H](NC(=O)CN)C(=O)N[C@@H](CCCCN)C(=O)NCC(=O)N[C@@H](Cc4ccccc4)C(=O)NCC(=O)N[C@@H](CC(=O)O)C(=O)N[C@@H](CO)C(=O)N3)NC2=O)C(=O)N[C@@H](CO)C(=O)N[C@@H](CO)C(=O)N[C@@H](CCCNC(=N)N)C(=O)N[C@@H](Cc2c[nH]cn2)C(=O)N[C@@H](CCCCN)C(=O)N[C@@H](Cc2c[nH]c3ccccc23)C(=O)N1)C(C)C)C(N)=O [K25R]
  IC50: 946 ± 154 nM

## CC(C)C[C@H](NC(=O)[C@H](Cc1ccc(O)cc1)NC(=O)[C@@H](NC(=O)[C@H](CCCCN)NC(=O)[C@@H]1CSSC[C@@H]2NC(=O)[C@H](CCC(=O)O)NC(=O)[C@H](CC(N)=O)NC(=O)[C@H](CCCCN)NC(=O)CNC(=O)[C@@H]3CCCN3C(=O)[C@H]([C@@H](C)O)NC(=O)[C@@H]3CSSC[C@H](NC(=O)[C@H](C)NC(=O)[C@H](Cc4ccc(O)cc4)NC(=O)[C@H](CC(N)=O)NC(=O)[C@@H]4CCCN4C(=O)[C@H](CSSC[C@H](NC(=O)CN)C(=O)N[C@@H](CCCCN)C(=O)NCC(=O)N[C@@H](Cc4ccccc4)C(=O)NCC(=O)N[C@@H](CC(=O)O)C(=O)N[C@@H](CO)C(=O)N3)NC2=O)C(=O)N[C@@H](CO)C(=O)N[C@@H](CO)C(=O)N[C@@H](CCCCN)C(=O)N[C@@H](Cc2c[nH]cn2)C(=O)N[C@@H](CCC(N)=O)C(=O)N[C@@H](Cc2c[nH]c3ccccc23)C(=O)N1)C(C)C)C(N)=O [K27Q]
  IC50: 622 ± 138 nM

## CC(C)[C@H](NC(=O)[C@H](CCCCN)NC(=O)[C@@H]1CSSC[C@@H]2NC(=O)[C@H](CCC(=O)O)NC(=O)[C@H](CC(N)=O)NC(=O)[C@H](CCCCN)NC(=O)CNC(=O)[C@@H]3CCCN3C(=O)[C@H]([C@@H](C)O)NC(=O)[C@@H]3CSSC[C@H](NC(=O)[C@H](C)NC(=O)[C@H](Cc4ccc(O)cc4)NC(=O)[C@H](CC(N)=O)NC(=O)[C@@H]4CCCN4C(=O)[C@H](CSSC[C@H](NC(=O)CN)C(=O)N[C@@H](CCCCN)C(=O)NCC(=O)N[C@@H](Cc4ccccc4)C(=O)NCC(=O)N[C@@H](CC(=O)O)C(=O)N[C@@H](CO)C(=O)N3)NC2=O)C(=O)N[C@@H](CO)C(=O)N[C@@H](CO)C(=O)N[C@@H](CCCCN)C(=O)N[C@@H](Cc2c[nH]cn2)C(=O)N[C@@H](CCCCN)C(=O)N[C@@H](Cc2c[nH]c3ccccc23)C(=O)N1)C(=O)N[C@@H](Cc1ccc(O)cc1)C(=O)N[C@@H](Cc1ccccc1)C(N)=O [L33F]
  IC50: 148 ± 17 nM

## CC(C)C[C@H](NC(=O)[C@H](CC(C)C)NC(=O)[C@@H](NC(=O)[C@H](CCCCN)NC(=O)[C@@H]1CSSC[C@@H]2NC(=O)[C@H](CCC(=O)O)NC(=O)[C@H](CC(N)=O)NC(=O)[C@H](CCCCN)NC(=O)CNC(=O)[C@@H]3CCCN3C(=O)[C@H]([C@@H](C)O)NC(=O)[C@@H]3CSSC[C@H](NC(=O)[C@H](C)NC(=O)[C@H](Cc4ccc(O)cc4)NC(=O)[C@H](CC(N)=O)NC(=O)[C@@H]4CCCN4C(=O)[C@H](CSSC[C@H](NC(=O)CN)C(=O)N[C@@H](CCCCN)C(=O)NCC(=O)N[C@@H](Cc4ccccc4)C(=O)NCC(=O)N[C@@H](CC(=O)O)C(=O)N[C@@H](CO)C(=O)N3)NC2=O)C(=O)N[C@@H](CO)C(=O)N[C@@H](CO)C(=O)N[C@@H](CCCCN)C(=O)N[C@@H](Cc2c[nH]cn2)C(=O)N[C@@H](CCCCN)C(=O)N[C@@H](Cc2c[nH]c3ccccc23)C(=O)N1)C(C)C)C(N)=O [Y32L]
  IC50: 441 ± 74 nM

## CC(C)C[C@H](NC(=O)[C@H](Cc1c[nH]c2ccccc12)NC(=O)[C@@H](NC(=O)[C@H](CCCCN)NC(=O)[C@@H]1CSSC[C@@H]2NC(=O)[C@H](CCC(=O)O)NC(=O)[C@H](CC(N)=O)NC(=O)[C@H](CCCCN)NC(=O)CNC(=O)[C@@H]3CCCN3C(=O)[C@H]([C@@H](C)O)NC(=O)[C@@H]3CSSC[C@H](NC(=O)[C@H](C)NC(=O)[C@H](Cc4ccc(O)cc4)NC(=O)[C@H](CC(N)=O)NC(=O)[C@@H]4CCCN4C(=O)[C@H](CSSC[C@H](NC(=O)CN)C(=O)N[C@@H](CCCCN)C(=O)NCC(=O)N[C@@H](Cc4ccccc4)C(=O)NCC(=O)N[C@@H](CC(=O)O)C(=O)N[C@@H](CO)C(=O)N3)NC2=O)C(=O)N[C@@H](CO)C(=O)N[C@@H](CO)C(=O)N[C@@H](CCCCN)C(=O)N[C@@H](Cc2c[nH]cn2)C(=O)N[C@@H](CCCCN)C(=O)N[C@@H](Cc2c[nH]c3ccccc23)C(=O)N1)C(C)C)C(N)=O [Y32W]
  IC50: 277 ± 43 nM
